# Apparent affinities of Ab-14 variants for a coronavirus HR2 peptide

The target is the same throughout: PDVDLGDISGINAS, from the HR2 region of SARS-CoV-2 spike.

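The parent was found by panning a naive human phage display library on the peptide. These sequences belong to a second round, designed from the earlier measurements on random variants of the parent. Several design methods are mixed in this list. AlphaSeq pools MATa yeast showing the antibodies with MATalpha yeast showing the peptide. Binding brings cells together so that they mate, and sequencing counts the barcode pairs among the diploids. A regression on co-assayed BCL2-family reference pairs converts the normalised counts of each replicate to an apparent Kd. The assay was run in six technical replicates.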

Ab-14 is the parent antibody, in scFv form: VH, then a (GGGGS)3 linker, then VL. The light chain is unchanged in all variants.
VH: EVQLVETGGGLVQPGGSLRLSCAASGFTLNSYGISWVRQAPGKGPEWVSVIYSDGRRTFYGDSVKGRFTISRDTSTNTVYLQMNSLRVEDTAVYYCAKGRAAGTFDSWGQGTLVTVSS
VL: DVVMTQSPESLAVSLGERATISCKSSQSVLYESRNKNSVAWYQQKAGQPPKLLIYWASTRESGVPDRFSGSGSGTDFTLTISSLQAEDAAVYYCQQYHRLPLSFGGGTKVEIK

Variants are written as CDR1, CDR2 and CDR3 of the heavy chain (limits as in the source). Parent: GFTLNSYGIS, VIYSDGRRTFYGDSVK, GRAAGTFDS.
Affinities are written as log10 Kd with Kd in nM; a lower number is a better binder.
Replicates are averaged; those with no signal do not enter the mean.
"not detected" means that the variant was in the library but no mating with the target was seen in any replicate; the authors take this as a sign of poor binding, and no number exists.
The parent sequence was in this pool as ten entries: three were never detected, three once, and four in most replicates, with averages from 0.34 to 2.37.
In the paper, a design with two or fewer of six values counts as a poor binder.
Where one sequence has several entries in the source, the replicates are pooled.
A sequence measured in both rounds can read differently, since the two assays cover different ranges.
As a blank, each scFv also met three strains without target: over all heavy chain designs, 1% of these pairings were detected, typically at 2.08 and seldom below 0.84. Also given: how often the same scFv was detected with the empty control strains.

| CDR-H1 | CDR-H2 | CDR-H3 | mean log10 Kd (nM) | seen in | signal with controls |
|---|---|---|---|---|---|
| GFKLNEYGIS | VIYSDGKRTFYGDSVK | GRTAGTFDS | -0.08 | 6 of 6 | 0 of 18 |
| GFELNSYGIS | VIYADGRRTFYGDNVK | GQAAGTFDS | -0.35 | 6 of 6 | 0 of 18 |
| GFDLDEYGIS | VIYADGMRTAYIDSVK | GENAGTFDT | -0.19 | 6 of 6 | 0 of 18 |
| FFSLNEYGIS | VIYSDGRRTFYGDSVK | GRTAGTFDS | 1.50 | 2 of 6 | 0 of 18 |
| GFSLNSYGIS | VIYSDGRRTFYHDSVK | GRTAGTFDD | 0.59 | 6 of 6 | 0 of 18 |
| GFDLNEYGIS | VIYADGMRTAYADNVK | GNNAGTFDL | 0.69 | 6 of 6 | 0 of 18 |
| GFDLNEYGIS | VIYADGKRTAYTDSVK | GENAGTFDI | -0.39 | 6 of 6 | 0 of 18 |
| GFSLNSYGIS | VIYSDGRRTFYDDSVK | GEAAGTFDS | 0.48 | 6 of 6 | 0 of 18 |
| GFSLESYGIS | VIYSDGRRTFYADSVK | GQAAGTFDS | 0.57 | 4 of 6 | 0 of 18 |
| GFDLNSYGIS | VIYSDGRRTFYGDSVK | GRAAGIYDS | not detected | 0 of 6 | 0 of 18 |
| GFDVNEYGIS | VIYADGRRTQYTDAVK | GKNNMVLFV | not detected | 0 of 6 | 0 of 18 |
| GFTLNEYGIS | VIYSDGRRTFYGDSVK | GRQAGTFDT | 1.42 | 4 of 6 | 0 of 18 |
| GETLNDYGIS | VIYADGRRTFYLDSVK | GRAAGSFDS | 0.92 | 5 of 6 | 0 of 18 |
| GFDLNEYGIS | VIYADGMRKAYADDVK | GNNAGTFDQ | -0.18 | 6 of 6 | 0 of 18 |
| GFTLNSYGIS | VIYSDGQRTFYADSVK | GRAAGTFDL | 0.74 | 6 of 6 | 0 of 18 |
| MFTLNSYGIS | VIYSDGRRTFYSDSVK | GQEAGTFDS | 1.92 | 2 of 6 | 0 of 18 |
| GFDLEEYGIS | VIYADGSRTAYADSVK | GENAGTFDV | 0.12 | 6 of 6 | 0 of 18 |
| GFDLDEYGIS | VIYADGRRTAYADDVK | GNNAGTFDV | -0.22 | 6 of 6 | 1 of 18 |
| GFDLNEYGIS | VIYADGMRTAYTDSVK | GNEAGTFDY | -0.24 | 6 of 6 | 0 of 18 |
| GFSLNSYGIS | VIYSDGRRTFYIDSVK | GWAAGTFDL | 1.47 | 6 of 6 | 0 of 18 |
| GFTLGEYGIS | VIYSDGRRTFYGDSVK | GQAAGTFDS | 0.85 | 6 of 6 | 0 of 18 |
| GFELNSYGIS | VIYSDGRRTFYGDSVK | GRAAGTFDS | 0.81 | 12 of 12 | 0 of 36 |
| GFDLDEYGIS | VIYADGRRSAYHDSFK | GQLGGVSFV | not detected | 0 of 6 | 0 of 18 |
| GFQLDEYGIS | VIYADGRRTFYADSVK | GEAAGTFDI | -0.30 | 6 of 6 | 0 of 18 |
| GFTLNEYGIS | VIYSDGLRTMYGDSVK | GRKAVTFDQ | not detected | 0 of 6 | 1 of 18 |
| GFDLNEYGIS | VIYADGVRTAYADDVK | GNEAGTFDL | -0.35 | 6 of 6 | 1 of 18 |
| GFHLNSYGIS | VIYSDGKRTFYGDSVK | GRTAGTFDS | 0.80 | 5 of 6 | 0 of 18 |
| GFTLNEYGIS | VIYSDGRRTYYTDSVK | GRFAGTFDS | 0.57 | 6 of 6 | 0 of 18 |
| WFTLNDYGIS | VIYSDGRRTQYIDSVK | GRAAGTFDS | not detected | 0 of 6 | 1 of 18 |
| GFDLNEYGIS | VIYADGMRTAYVDSVK | GNVAGTFDI | 0.30 | 1 of 6 | 1 of 18 |
| GFDLDNFGIS | VIYADGIRTQYQDSVK | GQNVATFDV | not detected | 0 of 6 | 0 of 18 |
| GFTLNSYGIS | VIYSDGRRTFYGDSVK | GVAAGTFPS | 1.48 | 3 of 6 | 0 of 18 |
| GFDLEDYGIS | VIYADGRRTQYADSVK | GELAGTFDL | 0.88 | 6 of 6 | 0 of 18 |
| GFGLNSYGIS | VIYSDGQRVFYGDSVK | GRAAGTFDS | not detected | 0 of 6 | 0 of 18 |
| GFVLEEYGIS | VIYADGMRTAYAEDFK | GQTGGNFHH | not detected | 0 of 6 | 0 of 18 |
| GQDLSEYGIS | VIYADGVRRSYANSVK | GNTSGNFSS | not detected | 0 of 6 | 0 of 18 |
| GFSLKSYGIS | VIYSDGMRTFYGDSFK | GRAAGTFDS | 2.09 | 5 of 6 | 0 of 18 |
| GFRLNSYGIS | VIYSDGRRTFYVDSVK | GQLAGTFDS | not detected | 0 of 6 | 0 of 18 |
| GFDLNEYGIS | VIYADGRRTAYSDSVK | GEIAGTFDV | -0.84 | 6 of 6 | 0 of 18 |
| GFDLEDYGIS | VIYADGMRTAYSDSVK | GNVAGTFDT | -0.26 | 6 of 6 | 0 of 18 |
| GFDLNEYGIS | VIYADGRRTQYIDSVK | GDAAGTFDV | 0.24 | 6 of 6 | 0 of 18 |
| GFDLDEYGIS | VIYADGQRTAYADSVK | GNVAGTFDV | -0.33 | 6 of 6 | 1 of 18 |
| GFDLNEYGIS | VIYADGRRTFYADSVK | GEDAGTFDI | 0.54 | 6 of 6 | 0 of 18 |
| GFSLNSYGIS | VIYSDGRRTFYDDSVK | GNAAGTFDS | 0.19 | 6 of 6 | 0 of 18 |
| EFDLQEYGIS | VIYADGKRTAYKDNVK | GNGGGVFIA | 2.99 | 1 of 6 | 0 of 18 |
| GFTLNSYGIS | VIYSDGRRTMMGDSVK | GRAAGTFDS | not detected | 0 of 6 | 0 of 18 |
| GFTLNEYGIS | VIYSDGRRTFYKDSVK | GRAGGTFDS | 0.79 | 2 of 6 | 0 of 18 |
| GESLNSYGIS | VIYSDGRRTFYADSVK | GRTAGTFDS | 1.30 | 5 of 6 | 0 of 18 |
| GFTLDSWGIS | VIYSDGRRTFYGDSVK | GRAAGTALS | not detected | 0 of 6 | 0 of 18 |
| GFTLNSYGIS | VIYRDGRRTFYDDDVK | GQLAGTFDS | not detected | 0 of 6 | 0 of 18 |
| GFTLNDYGIS | VIYSDGRRTFYGDSVK | GRMAGTFWS | not detected | 0 of 6 | 0 of 18 |
| GFDLNEYGIS | VIYADGRRTAYIDSVK | GNAAGTFDV | 3.41 | 1 of 6 | 0 of 18 |
| GFDLNEYGIS | VIYADGVRKSYADDVK | GNVAGTFDV | -0.99 | 6 of 6 | 0 of 18 |
| GFDLDEYGIS | VIYADGMRTAYADSVK | GNNAGTFDI | -0.46 | 6 of 6 | 1 of 18 |
| GFDLNEYGIS | VIYADGQRTAYSDSVK | GENAGTFDT | 0.01 | 6 of 6 | 0 of 18 |
| GFALNEYGIS | VIYADGFRRAYTDKVK | GVTVGNFSS | 2.90 | 1 of 6 | 0 of 18 |
| GFTLNQYGIS | VIYSDGRRTFYADSVK | GRAAGTFDK | 0.60 | 6 of 6 | 1 of 18 |
| GFDLNEYGIS | VIYADGMRTAYADDVK | GGNAGTFDV | not detected | 0 of 6 | 1 of 18 |

The first 10 variants above that were never detected:

CDR-H1	CDR-H2	CDR-H3	mean log10 Kd (nM)	seen in	signal with controls
GFDLNSYGIS	VIYSDGRRTFYGDSVK	GRAAGIYDS	not detected	0 of 6	0 of 18
GFDVNEYGIS	VIYADGRRTQYTDAVK	GKNNMVLFV	not detected	0 of 6	0 of 18
GFDLDEYGIS	VIYADGRRSAYHDSFK	GQLGGVSFV	not detected	0 of 6	0 of 18
GFTLNEYGIS	VIYSDGLRTMYGDSVK	GRKAVTFDQ	not detected	0 of 6	1 of 18
WFTLNDYGIS	VIYSDGRRTQYIDSVK	GRAAGTFDS	not detected	0 of 6	1 of 18
GFDLDNFGIS	VIYADGIRTQYQDSVK	GQNVATFDV	not detected	0 of 6	0 of 18
GFGLNSYGIS	VIYSDGQRVFYGDSVK	GRAAGTFDS	not detected	0 of 6	0 of 18
GFVLEEYGIS	VIYADGMRTAYAEDFK	GQTGGNFHH	not detected	0 of 6	0 of 18
GQDLSEYGIS	VIYADGVRRSYANSVK	GNTSGNFSS	not detected	0 of 6	0 of 18
GFRLNSYGIS	VIYSDGRRTFYVDSVK	GQLAGTFDS	not detected	0 of 6	0 of 18

Data: MIT Lincoln Laboratory AlphaSeq set, Li et al. 2023, doi:10.1038/s41467-023-39022-2, as distributed in FLAb.